The structures appear in SMILES notation. This is a selection; strong and weak results do not stand in their true shares. Results filed as inconclusive are left out. Active and inactive are the calls of the source. The call rests on the fitted dose curve.

By UniProt entry, the sequences of proteins in these tests, tags left out.
UniProt Q14974, whole entry: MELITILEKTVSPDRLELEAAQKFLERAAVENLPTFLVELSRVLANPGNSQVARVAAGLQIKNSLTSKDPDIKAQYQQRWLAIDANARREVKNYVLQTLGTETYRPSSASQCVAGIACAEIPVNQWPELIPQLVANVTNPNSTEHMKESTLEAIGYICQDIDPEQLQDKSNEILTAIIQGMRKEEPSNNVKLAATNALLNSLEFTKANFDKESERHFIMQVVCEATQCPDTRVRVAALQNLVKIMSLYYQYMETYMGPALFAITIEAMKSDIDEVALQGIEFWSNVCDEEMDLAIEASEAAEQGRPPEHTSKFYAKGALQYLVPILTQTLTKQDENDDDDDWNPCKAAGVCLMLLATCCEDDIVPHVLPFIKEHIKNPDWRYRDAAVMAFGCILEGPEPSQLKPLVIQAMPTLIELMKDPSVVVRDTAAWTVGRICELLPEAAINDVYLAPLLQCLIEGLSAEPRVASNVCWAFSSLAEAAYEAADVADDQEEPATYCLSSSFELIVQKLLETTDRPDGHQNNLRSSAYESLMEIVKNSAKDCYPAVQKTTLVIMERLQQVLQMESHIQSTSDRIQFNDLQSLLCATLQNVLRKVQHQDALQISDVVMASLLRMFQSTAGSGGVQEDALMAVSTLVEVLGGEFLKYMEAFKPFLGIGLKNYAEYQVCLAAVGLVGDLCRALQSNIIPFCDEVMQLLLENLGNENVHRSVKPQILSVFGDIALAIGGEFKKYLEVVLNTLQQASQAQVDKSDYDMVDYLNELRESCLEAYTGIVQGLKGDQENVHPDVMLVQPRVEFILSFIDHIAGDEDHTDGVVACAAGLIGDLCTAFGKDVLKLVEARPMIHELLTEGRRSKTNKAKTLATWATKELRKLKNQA
UniProt O95149, whole entry partner: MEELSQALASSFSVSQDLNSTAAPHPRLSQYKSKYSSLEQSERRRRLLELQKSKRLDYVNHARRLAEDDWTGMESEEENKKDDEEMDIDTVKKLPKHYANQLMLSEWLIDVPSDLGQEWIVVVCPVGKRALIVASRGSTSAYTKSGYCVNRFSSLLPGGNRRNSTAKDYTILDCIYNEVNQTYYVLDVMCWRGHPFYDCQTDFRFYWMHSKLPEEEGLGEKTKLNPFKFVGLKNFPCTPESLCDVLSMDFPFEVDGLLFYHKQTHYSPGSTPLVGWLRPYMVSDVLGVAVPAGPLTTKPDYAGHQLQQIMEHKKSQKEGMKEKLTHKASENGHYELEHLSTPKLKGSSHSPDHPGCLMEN

The target of the experiment is Importin subunit beta-1 (Homo sapiens) (UniProt Q14974). Description: qHTS Assay for Inhibitors of Rango (Ran-regulated importin-beta cargo) - Importin beta complex formation.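 Further: 0% = DMSO wells and 100% = buffer wells lacking importin beta; nearly all actives have a fitted effect of over 15% in size.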 The conditions noted are these: Rango CFP/YFP FRET sensor + importin beta, 45 min; at 92.2 µM (top of the series). The text has this:
NIH Molecular Libraries Probe Production Centers Network [MLPCN] NIH Chemical Genomics Center [NCGC] MLPCN Grant: R03 MH090808-01A1 Assay Submitter (PI): Petr Kalab NCGC Assay Overview: The small GTPase Ran regulates transport of macromolecules between the nucleus and the cytoplasm (nuclear transport) and has important functions in mitotic spindle assembly, nuclear envelope (NE) formation and nuclear pore complex (NPC) assembly. RanGTP gradient is thought to promote spindle assembly by providing a spatial clue to microtubule nucleation and Aurora A activation. Because the localized release and binding of importin alpha cargo relays this spatial clue to SAFs, inhibitors of the Rango - importin beta complex can then be used in further understanding their role in cell cycle specifically in mitosis progression. […] The assay used a fluorescence resonance energy transfer (FRET) Rango biosensor that contains the IBB of human snurportin 1 flanked by yellow fluorescent protein (EYFP) at the amino terminus and cerulean CFP10 at the carboxy terminus. […] FRET readings were obtained at two time points. FRET reading prior to importin beta addition (pre-read) were used flag potential compound interference; FRET reading after importin beta addition (post-read) were used to identify inhibitors using the FRET ratio parameter. […]
(In general: qHTS replaces the single test concentration by a dilution series.)
Regarding `CCC(=O)N(c1ccccc1)C1(COC)CCN(CCn2nnn(CC)c2=O)CC1`, the inhibition of complex formation is inactive: -0.455%.

The record behind these values is PubChem BioAssay AID540263 (National Center for Advancing Translational Sciences (NCATS), 2011).
